# Test results as given in ChEMBL document CHEMBL5725562, “Substituted triazolopyridines and methods of use thereof” (2017).
# Amino acid sequences for entries named in this document (tags omitted).
# UniProt Q15858, whole entry: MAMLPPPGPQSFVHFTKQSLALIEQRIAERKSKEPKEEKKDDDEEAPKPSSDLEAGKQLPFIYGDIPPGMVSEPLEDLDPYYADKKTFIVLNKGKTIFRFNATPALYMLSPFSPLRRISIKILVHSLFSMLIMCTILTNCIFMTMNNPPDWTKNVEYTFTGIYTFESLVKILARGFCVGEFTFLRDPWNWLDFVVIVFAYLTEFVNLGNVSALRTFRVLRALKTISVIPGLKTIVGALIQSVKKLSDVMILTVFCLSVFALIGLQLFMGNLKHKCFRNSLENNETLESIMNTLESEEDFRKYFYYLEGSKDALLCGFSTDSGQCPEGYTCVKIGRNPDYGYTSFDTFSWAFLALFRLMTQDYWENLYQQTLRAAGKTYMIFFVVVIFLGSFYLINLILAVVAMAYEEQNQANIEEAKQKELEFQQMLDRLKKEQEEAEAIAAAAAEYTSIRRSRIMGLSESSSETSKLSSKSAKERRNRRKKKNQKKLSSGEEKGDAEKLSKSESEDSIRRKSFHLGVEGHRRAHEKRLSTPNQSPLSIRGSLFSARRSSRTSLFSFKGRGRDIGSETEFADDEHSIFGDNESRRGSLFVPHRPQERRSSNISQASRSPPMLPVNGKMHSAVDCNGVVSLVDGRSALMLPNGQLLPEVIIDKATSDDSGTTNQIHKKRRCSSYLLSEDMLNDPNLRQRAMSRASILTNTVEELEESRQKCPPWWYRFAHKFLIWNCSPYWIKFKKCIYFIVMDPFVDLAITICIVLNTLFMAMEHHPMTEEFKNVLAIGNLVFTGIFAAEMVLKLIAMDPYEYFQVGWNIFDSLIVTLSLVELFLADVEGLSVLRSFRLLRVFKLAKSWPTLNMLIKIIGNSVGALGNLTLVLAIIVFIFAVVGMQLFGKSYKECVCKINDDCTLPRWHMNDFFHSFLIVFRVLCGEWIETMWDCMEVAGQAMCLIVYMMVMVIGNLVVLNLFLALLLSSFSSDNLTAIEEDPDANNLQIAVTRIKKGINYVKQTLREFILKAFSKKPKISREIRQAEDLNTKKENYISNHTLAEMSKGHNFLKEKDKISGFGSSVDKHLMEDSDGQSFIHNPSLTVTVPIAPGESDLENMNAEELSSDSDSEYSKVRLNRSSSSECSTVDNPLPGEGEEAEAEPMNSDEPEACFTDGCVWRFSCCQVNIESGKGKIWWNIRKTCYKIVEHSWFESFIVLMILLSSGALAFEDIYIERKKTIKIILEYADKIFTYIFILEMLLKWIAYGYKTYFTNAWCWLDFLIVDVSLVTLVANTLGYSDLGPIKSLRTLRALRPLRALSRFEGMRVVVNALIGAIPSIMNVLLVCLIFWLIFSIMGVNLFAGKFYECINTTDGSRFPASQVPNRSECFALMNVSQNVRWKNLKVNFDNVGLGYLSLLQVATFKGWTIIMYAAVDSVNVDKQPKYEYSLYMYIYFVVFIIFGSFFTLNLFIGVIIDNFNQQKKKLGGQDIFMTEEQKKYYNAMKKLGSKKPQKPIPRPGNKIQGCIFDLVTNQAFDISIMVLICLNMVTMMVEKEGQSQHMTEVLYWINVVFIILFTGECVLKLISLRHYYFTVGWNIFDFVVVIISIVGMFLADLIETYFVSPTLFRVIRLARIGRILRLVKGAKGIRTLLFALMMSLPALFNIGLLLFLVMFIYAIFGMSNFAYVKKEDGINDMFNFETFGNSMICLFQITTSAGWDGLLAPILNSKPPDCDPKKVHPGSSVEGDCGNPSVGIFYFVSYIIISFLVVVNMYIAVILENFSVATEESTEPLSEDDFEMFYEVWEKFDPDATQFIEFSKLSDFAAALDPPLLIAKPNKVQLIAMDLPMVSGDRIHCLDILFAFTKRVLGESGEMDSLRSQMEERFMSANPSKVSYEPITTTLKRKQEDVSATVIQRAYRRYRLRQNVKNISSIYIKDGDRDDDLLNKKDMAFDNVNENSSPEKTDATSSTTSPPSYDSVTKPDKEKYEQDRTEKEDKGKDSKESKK
# Several values for one entry are separate records, joined by “and”; a condition that tells them apart may be missing. Equal values may be shown once.
# Biological target: Sodium channel protein type 9 subunit alpha (Homo sapiens, UniProt Q15858)
row,SMILES,IC50
1,O=S(=O)(Nc1nnc2cc(OCC34CC5CC(CC(C5)C3)C4)c(C3CC3)cn12)N1CCCC1,8.4 nM and 8 nM
2,O=S(=O)(Nc1nnc2cc(OCC3CC4C5CCC(C5)C4C3)c(C3CC3)cn12)N1CCC1 (configuration not stated),11.5 nM and 11 nM
